US20250064954A1

By UniProt entry, the sequences of proteins in these tests, tags left out. Residues count along the entry.
UniProt P04150, 524-758 limits assumed: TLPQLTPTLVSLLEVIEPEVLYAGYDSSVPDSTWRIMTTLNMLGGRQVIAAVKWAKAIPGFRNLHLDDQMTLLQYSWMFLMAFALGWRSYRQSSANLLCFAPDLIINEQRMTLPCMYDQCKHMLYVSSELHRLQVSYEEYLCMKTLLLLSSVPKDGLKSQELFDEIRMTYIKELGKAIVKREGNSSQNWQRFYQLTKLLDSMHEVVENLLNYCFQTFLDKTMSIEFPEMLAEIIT

Target: Glucocorticoid Receptor (GR) (Homo sapiens, UniProt P04150)
Assay: Cell based GR responsive luciferase reporter assay in HEK293/UASLuc/pBIND-GR cells
Conditions: 48 hours

CCCC1O[C@@H]2C[C@H]3[C@@H]4C[C@H](F)C5=CC(=O)C=C[C@]5(C)[C@@]4(F)[C@@H](O)C[C@]3(C)[C@]2(C(=O)COC(=O)c2ccc(CN)cc2)O1 (some centres unmarked)
EC50: 0.149 nM
S/N (ratio of highest RLU on the dose response curve to RLU in untreated wells): 12.4
